The text below walks through data of article PMC3664792 (Nucleic Acids Research, 2013).

In one assay the target is T1, εL (E. coli, UniProt P03007 1-243, T183L | M185L | A186P | F187L).
T1 sequence: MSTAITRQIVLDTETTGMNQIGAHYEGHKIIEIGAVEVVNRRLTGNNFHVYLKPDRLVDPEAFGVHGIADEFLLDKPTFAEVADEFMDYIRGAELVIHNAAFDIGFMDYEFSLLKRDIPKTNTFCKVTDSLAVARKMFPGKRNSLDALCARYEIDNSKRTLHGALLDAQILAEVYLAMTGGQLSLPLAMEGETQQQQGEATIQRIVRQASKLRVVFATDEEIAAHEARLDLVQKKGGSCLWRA
The assay is described as follows: pull-down.

The next assay deals with T2, αL (E. coli, UniProt P10443 1-1160, A921L | M923L).
T2 sequence: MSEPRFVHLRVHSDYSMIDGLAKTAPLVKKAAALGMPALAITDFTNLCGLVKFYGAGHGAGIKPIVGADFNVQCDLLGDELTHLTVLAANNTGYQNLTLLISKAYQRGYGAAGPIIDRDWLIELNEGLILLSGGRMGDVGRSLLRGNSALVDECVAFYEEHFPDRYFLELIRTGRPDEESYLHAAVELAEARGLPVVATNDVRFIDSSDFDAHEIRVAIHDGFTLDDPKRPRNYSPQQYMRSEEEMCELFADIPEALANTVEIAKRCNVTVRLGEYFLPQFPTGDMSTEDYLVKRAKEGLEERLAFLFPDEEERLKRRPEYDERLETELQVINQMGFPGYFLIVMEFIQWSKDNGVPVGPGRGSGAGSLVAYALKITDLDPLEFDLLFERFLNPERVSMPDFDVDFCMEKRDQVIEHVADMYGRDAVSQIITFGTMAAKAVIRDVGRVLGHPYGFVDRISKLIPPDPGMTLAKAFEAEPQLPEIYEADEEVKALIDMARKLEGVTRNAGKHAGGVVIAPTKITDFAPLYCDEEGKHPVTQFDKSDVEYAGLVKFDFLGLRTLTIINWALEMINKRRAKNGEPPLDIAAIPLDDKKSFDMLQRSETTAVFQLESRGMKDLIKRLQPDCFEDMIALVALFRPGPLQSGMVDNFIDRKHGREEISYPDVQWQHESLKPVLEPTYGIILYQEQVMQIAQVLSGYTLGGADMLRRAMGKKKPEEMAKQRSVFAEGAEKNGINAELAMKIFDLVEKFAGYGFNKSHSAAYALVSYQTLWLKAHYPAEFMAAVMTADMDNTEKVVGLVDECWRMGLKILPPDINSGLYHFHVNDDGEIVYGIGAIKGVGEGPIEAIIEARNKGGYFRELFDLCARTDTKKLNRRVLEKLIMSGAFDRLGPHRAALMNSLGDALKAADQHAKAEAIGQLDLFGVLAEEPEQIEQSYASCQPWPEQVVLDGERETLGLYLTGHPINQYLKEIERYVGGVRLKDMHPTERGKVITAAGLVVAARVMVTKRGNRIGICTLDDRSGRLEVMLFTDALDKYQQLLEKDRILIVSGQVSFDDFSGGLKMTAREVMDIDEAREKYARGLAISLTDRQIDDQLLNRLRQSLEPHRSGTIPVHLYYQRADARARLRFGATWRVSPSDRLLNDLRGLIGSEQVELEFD
The assay is described as follows: anion-exchange chromatography.

A further assay addresses T3, His6-αGL (E. coli, UniProt P10443 1-1160, A921L | M923L | Val832Gly).
T3 sequence: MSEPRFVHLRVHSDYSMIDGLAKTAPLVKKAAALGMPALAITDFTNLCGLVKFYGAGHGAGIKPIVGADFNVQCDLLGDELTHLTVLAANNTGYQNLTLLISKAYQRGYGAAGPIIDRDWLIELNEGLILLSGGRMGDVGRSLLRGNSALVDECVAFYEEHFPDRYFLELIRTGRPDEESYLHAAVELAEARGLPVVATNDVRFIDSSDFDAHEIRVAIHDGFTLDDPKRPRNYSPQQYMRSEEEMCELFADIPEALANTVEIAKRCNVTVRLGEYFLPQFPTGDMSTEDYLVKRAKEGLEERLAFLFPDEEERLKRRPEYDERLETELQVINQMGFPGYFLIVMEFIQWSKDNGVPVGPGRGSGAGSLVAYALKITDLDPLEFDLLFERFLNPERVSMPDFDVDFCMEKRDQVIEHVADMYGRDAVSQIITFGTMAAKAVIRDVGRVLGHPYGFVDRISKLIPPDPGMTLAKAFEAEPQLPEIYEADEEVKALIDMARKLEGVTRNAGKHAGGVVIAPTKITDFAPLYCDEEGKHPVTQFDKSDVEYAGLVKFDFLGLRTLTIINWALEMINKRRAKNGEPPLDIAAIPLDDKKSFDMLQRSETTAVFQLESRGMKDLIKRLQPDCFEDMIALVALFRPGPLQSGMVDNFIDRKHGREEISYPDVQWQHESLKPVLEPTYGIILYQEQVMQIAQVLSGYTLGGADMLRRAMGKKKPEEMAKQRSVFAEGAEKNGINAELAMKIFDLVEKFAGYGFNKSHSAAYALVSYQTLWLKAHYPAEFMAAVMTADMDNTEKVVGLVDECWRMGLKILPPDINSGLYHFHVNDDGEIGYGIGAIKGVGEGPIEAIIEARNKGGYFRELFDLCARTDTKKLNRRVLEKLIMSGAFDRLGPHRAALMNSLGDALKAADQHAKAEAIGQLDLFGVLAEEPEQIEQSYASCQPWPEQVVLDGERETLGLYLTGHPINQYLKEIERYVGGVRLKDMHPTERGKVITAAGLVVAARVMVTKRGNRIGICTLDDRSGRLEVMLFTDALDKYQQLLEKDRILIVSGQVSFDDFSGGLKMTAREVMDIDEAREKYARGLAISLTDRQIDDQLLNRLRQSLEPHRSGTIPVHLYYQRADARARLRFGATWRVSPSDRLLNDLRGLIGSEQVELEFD
Put plainly: SEC. For orientation: SEC sorts molecules by how far they enter the pores of the column.

B1: θ subunit of DNA polymerase III (natural protein)
chain: MLKNLAKLDQTEMDKVNVDLAAAGVAFKERYNMPVIAEAVEREQPEHLRSWFRERLIAHRLASVNLSRLPYEPKLK
For B1, the binding result with εL is recorded as “binds”.

B2: β2 sliding clamp (natural protein)
chain: MKFTVEREHLLKPLQQVSGPLGGRPTLPILGNLLLQVADGTLSLTGTDLEMEMVARVALVQPHEPGATTVPARKFFDICRGLPEGAEIAVQLEGERMLVRSGRSRFSLSTLPAADFPNLDDWQSEVEFTLPQATMKRLIEATQFSMAHQDVRYYLNGMLFETEGEELRTVATDGHRLAVCSMPIGQSLPSHSVIVPRKGVIELMRMLDGGDNPLRVQIGSNNIRAHVGDFIFTSKLVDGRFPDYRRVLPKNPDKHLEAGCDLLKQAFARAAILSNEKFRGVRLYVSENQLKITANNPEQEEAEEILDVTYSGAEMEIGFNVSYVLDVLNALKCENVRMMLTDSVSSVQIEDAASQSAAYVVMPMRL
With B2, the binding result with αL and with His6-αGL was “binds” throughout.
